Screens deposited in PubChem BioAssay by several laboratories.
NR1D1 modulator = Rev-erb alpha (human) modulation. activity, % at 10 µM. Rev-erbα–FITC-DNA binding, fluorescence polarization, 90 min. 370,000 compounds, 0.79% hits;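 active = activity above about 14%, limit read from the data; passing the limit was not always enough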
INS-1E GSIS act = primary screen for activators of insulin secretion dependent on glucose, INS-1E cells, GLuc reporter luminescence | activation, % at 16.6 µM | INS-1E GLuc reporter insulin secretion, 2-3 h | 370,000 compounds, 0.61% hits;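 active = lowest replicate activation of at least 40%, so every replicate reaches that level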
SMARCA2 act = SMARCA2 function activation, primary screen. MG213 cells, MMTV-luciferase reporter, dexamethasone, overnight. activation, % at 9.1 µM. 370,000 compounds, 1% hits. AID 652017; in the data active = activation above about 7.8%
ERp5 inh = blocks human ERp5 reductase activity on insulin; Q15084; ERp5 insulin aggregation, absorbance 650 nm, 90 min; inhibition, % at 9.99 µM; 350,000 compounds, 0.05% hits; AID 651711;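 active = mean replicate inhibition above about 25%, with every replicate also reaching it, limit read from the data, passing the limit was not always enough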
PDI inh = blocks human protein disulfide isomerase activity; PDI insulin aggregation turbidity, A650, 90 min; inhibition, % at 10 µM; 350,000 compounds, 0.052% hits; AID 588391;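 active = mean inhibition across replicates of 30% or more, whatever share of single replicates reach that level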
UUG fidelity = modulators of yeast start codon fidelity, primary screen, whole organism, S. cerevisiae, single point, plate reader; S. cerevisiae UUG-firefly luciferase reporter, luminescence/redox ratio; activity score, % at 18.7 µM; actives 0.13% (n = 350,000); AID 602363, 2012;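 active = replicate mean at a twofold rise or more, about +100% in these data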;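 also: firefly luciferase made from a UUG start codon reports start codon fidelity; reporter light over untreated wells divided by growth signal over untreated wells; some hits fall short of that in this replicate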
SMARCA2 act conf = SMARCA2 activation, confirmation screen; shares compounds with SMARCA2 act; MG213 cells, MMTV-luciferase with dexamethasone, luminescence, overnight; MG213 cells expressing E1A, Rb sequestered; DMSO wells 0%, reference activator 100%; activation, % at 9.1 µM; 3,500 compounds, 30% hits;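 active = activation above its plate's cutoff, the mean activation of tested wells plus 3 SD, cut at about 7.9% in these data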
VP16 Luc act = counter-screen for SMARCA2 activators: GAL4-VP16 luciferase reporter activation; shares compounds with SMARCA2 act; HEK293 GAL4-VP16 pG5luc reporter, luciferase luminescence; scaled: DMSO wells 0%, SAHA wells 100%; activation, % at 9.1 µM; 3,500 compounds, 41% hits;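 active = activation above the solvent-only control well mean plus 3 SD, averaged across control plates, cut at about 5.2% in these data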
A number is an active result; 0 = inactive; - = no result. Only some compounds are listed: those with a hit (about 2.1% of all), similar ones and a draw of the others.

SMILES	NR1D1 modulator	INS-1E GSIS act	SMARCA2 act	ERp5 inh	PDI inh	UUG fidelity	SMARCA2 act conf	VP16 Luc act
Cc1nonc1CC(=O)NC1CC(C)(C)Cc2c1cnn2-c1ccc(F)cc1 (stereo not drawn)	0	0	0	0	0	0	-	-
COc1ccc(-n2ncc3c2CC(C)(C)CC3NC(=O)Cc2nonc2C)cc1 (stereo not drawn)	0	0	8.0	0	0	0	0	0
O=C(NCC[C@@H]1CC[C@H](NS(=O)(=O)c2cccc(F)c2)[C@H](CO)O1)C1CCCCC1	-	0	-	0	-	0	-	-
CN1OC[C@@H]2CN(C(=O)CCc3ccccc3)[C@H](c3ccc(-n4ccnc4)cc3)C[C@@H]21	0	0	0	0	-	0	-	-
CN1OC[C@@H]2CN(C(=S)NCCc3ccccc3)[C@H](c3ccc(-n4ccnc4)cc3)C[C@@H]21	0	0	8.4	0	-	0	0	0
Cc1ccc(-c2ccc3c(c2)O[C@@H](CN(C)C(=O)CC2CC2)[C@H](C)CN([C@H](C)CO)S3(=O)=O)cc1	-	0	-	0	-	-	-	-
O=C(Nc1cccc(S(=O)(=O)NC2=NCCC2)c1)c1ccccc1	0	0	0	0	0	0	-	-
CN(C)c1cccc(C(=O)Nc2cccc(S(=O)(=O)NC3=NCCC3)c2)c1	0	0	8.3	0	0	0	15	5.3
C[C@@H]1CN([C@H](C)CO)C(=O)CCCn2cc(nn2)CO[C@@H]1CN(C)Cc1cccc(C(F)(F)F)c1	-	0	-	-	-	-	-	-
O=C(NC1CCCC1)[C@@H]1[C@@H](CO)[C@@H]2Cn3c(ccc(-c4cccnc4)c3=O)[C@@H]2N1CC1CC1	-	0	-	0	-	-	-	-
COc1ccccc1-c1csc(C(NC(C)=O)c2cccc(F)c2)n1 (stereo not drawn)	0	0	8.4	0	0	0	0	0
COc1ccccc1-c1csc(C(NC(C)=O)c2ccc(F)c(F)c2)n1 (stereo not drawn)	0	0	0	0	0	0	-	-
C[C@@H]1CN([C@@H](C)CO)C(=O)c2cc(NC(=O)Nc3ccc(F)cc3)ccc2O[C@H]1CN(C)Cc1ccc(Cl)c(Cl)c1	-	0	-	0	-	0	-	-
O=C(c1ccc(F)cc1)N1CC(=O)N2[C@H](CO)[C@@H](c3ccc(-c4cccnc4)cc3)[C@H]2C1	-	0	-	0	-	-	-	-
C[C@H]1CCCCO[C@@H](CN(C)S(=O)(=O)c2cccs2)[C@@H](C)CN([C@@H](C)CO)C(=O)c2cc(NC(=O)Nc3ccc(F)cc3)ccc2O1	-	0	-	0	-	0	-	-
C#CCSc1nc(-c2cccs2)ccc1C#N	0	-	0	-	0	0	-	-
COC(=O)CSc1nc(-c2cccs2)ccc1C#N	0	0	11	0	0	-	13	8.0
Cc1ccc(S(=O)(=O)N[C@@H]2CC[C@@H](CCn3cc(C4CCCCC4)nn3)O[C@H]2CO)cc1	-	0	-	0	-	0	-	-
O=C(CSc1nnc2ccccn12)Nc1ncc(Cl)cc1Cl	0	0	9.5	-	0	0	8.4	0
CC(Sc1nnc2ccccn12)C(=O)Nc1ncc(Cl)cc1Cl (stereo not drawn)	0	-	0	-	0	0	-	-
Cc1ccnc(NC(=O)c2cccc3ccccc23)c1	0	0	11	0	0	0	0	0
O=C(NCc1cccs1)c1ccc([N+](=O)[O-])cc1Cl	0	0	13	-	0	-	0	0
O=C1CC2(CCCC2)CC(=O)N1c1ccccc1	0	0	0	0	0	0	-	-
O=C1CC2(CCCCC2)CC(=O)N1CCc1ccccc1	0	0	8.0	0	0	0	0	0
Cc1ccc(C2CC(=O)C=C(Nc3ccc(Cl)cc3)C2)cc1 (stereo not drawn)	0	0	9.9	-	0	-	0	0
SMILES	NR1D1 modulator	INS-1E GSIS act	SMARCA2 act	ERp5 inh	PDI inh	UUG fidelity	SMARCA2 act conf	VP16 Luc act
O=C1C=C(Nc2ccc(Cl)cc2)CC(c2ccc(Cl)cc2)C1 (stereo not drawn)	0	-	0	-	0	0	-	-
CN1C(=O)C(C)(C)c2cc(S(=O)(=O)N3CCCC(C(=O)NCc4ccccc4Cl)C3)ccc21 (stereo not drawn)	0	0	10	0	0	0	0	0
C[C@H]1CCCCO[C@H](CN(C)Cc2ccc3c(c2)OCO3)[C@@H](C)CN([C@@H](C)CO)C(=O)c2cc(NC(=O)c3ccncc3)ccc2O1	-	0	-	0	-	0	-	-
N#CCS(=O)(=O)c1cccc[n+]1[O-]	0	0	8.8	0	-	-	0	0
CC(C)c1ccc(NC(=O)COC(=O)C2CCCCC2)cc1	0	0	8.4	0	0	0	0	0
Cc1ccc(NC(=O)c2cccc3cccnc23)cc1	0	0	8.2	0	0	0	20	9.1
CCC(C(=O)NNC(=O)c1cnccn1)c1ccccc1 (stereo not drawn)	0	0	8.1	0	0	0	0	0
CCC(C(=O)Nc1cnccn1)c1ccccc1 (stereo not drawn)	0	-	0	-	0	-	-	-
N#C/C(=N\Nc1ccc(F)cc1)C(=N)N1CCCCCC1	0	0	12	0	0	0	15	19
N#C/C(=N\Nc1ccc(Cl)cc1)C(=N)N1CCCCC1	0	0	0	-	0	-	-	-
Cc1ccc(N/N=C(\C#N)C(=N)N2CCOCC2)cc1	0	0	0	0	0	-	-	-
Cc1ccc(N/N=C(\C#N)C(=N)N2CCCCCC2)cc1	0	0	8.3	0	0	-	12	14
CN1[C@@H]2c3ccc(C4=CCCCC4)c(=O)n3C[C@H]1[C@H](CO)[C@H]2C(=O)N1CCCCC1	-	0	-	0	-	0	-	-
CC(C)NC(=O)N(C)C[C@@H]1Oc2ncc(C#CC3CCCC3)cc2C(=O)N([C@H](C)CO)C[C@@H]1C	-	0	-	0	-	0	-	-
O=C(Oc1ccc2ccccc2c1Cl)N1CCCCCC1	0	0	9.3	0	0	-	0	24
O=C(Oc1ccc2ccccc2c1Cl)N1CCCC1	0	-	0	-	0	0	-	-
CS(=O)(=O)N(CC(=O)N1CCCCCC1)c1ccc2c(c1)OCCO2	-	0	8.0	0	0	0	0	0
CS(=O)(=O)N(CC(=O)N1CCCCC1)c1ccc2c(c1)OCO2	0	0	0	0	0	0	-	-
CN1C(=O)c2cc(NC(=O)Nc3ccccc3F)ccc2OC[C@H]2O[C@@H](CC(=O)NCCc3ccncc3)CC[C@H]21	-	0	-	0	-	-	-	-
O=C1NC(=O)/C(=C\c2ccc(O)cc2O)S1	0	0	13	0	0	-	0	0
Cc1ccc(S(=O)(=O)N/N=C\C=C\c2ccccc2)cc1	0	0	0	0	0	-	-	-
Cc1ccc(S(=O)(=O)NN=CC2(c3ccccc3)CC2)cc1	0	0	9.8	0	0	0	0	0
